# Test results taken from PubChem BioAssay AID435005 (Broad Institute, 2010).
# Only a part is listed here, and it is no random draw. The source made the active and inactive calls.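 Rule for the calls: active = Every replicate reaches about 75%, or at least half do and their mean reaches it too (limit read from the data); inconclusive = At least half of replicates reach the limit but their mean does not; inactive = Under half of replicates reach the limit.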
# Assay: INS-1E beta cell survival under cytokines – luminescence, primary screen (AID 435005);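 note: 0% = cytokine-treated negative control wells and 100% = positive control rescue; higher means more ATP so stronger rescue from cytokine killing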
# Details: INS-1E cytokine-induced death, ATP luminescence, 48 h; active compounds read high; percent of positive-control rescue, neutral wells zero; concentration not given here
row,Structure (SMILES),protection from apoptosis
1,O=[N+]([O-])c1cc([N+](=O)[O-])c(O)c([N+](=O)[O-])c1.c1ccc(Oc2ccncc2)cc1,inactive: -7.35%
2,CCOC(=O)c1ccc(NP(C)(=O)Oc2ccc(OC)cc2)cc1 (centres undefined),inactive: -3.31%
3,CCOP(C)(=S)SCC(=O)NC(C)C(=O)O (centres undefined),inactive: -2.02%
4,O=C(OC1CN2CCC1CC2)c1cccc([N+](=O)[O-])c1 (centres undefined),inactive: -4.32%
5,CP(=O)(Nc1ccccn1)Oc1ccc(Cl)cc1 (centres undefined),inactive: -1.91%
6,CCC(C)N(CC(C)C)C(=S)SC(NC(C)=O)C(Cl)(Cl)Cl (centres undefined),inactive: 64.1%
7,COP1(=S)c2c(C)nn(CCC#N)c2N=C(c2ccc(F)cc2)N1C (centres undefined),inactive: -0.266%
8,CP(=O)(Nc1ccc(SC(F)(F)F)cc1)Oc1ccc(Cl)cc1 (centres undefined),inactive: -7.47%
9,Cc1cccc(C)c1OP(C)(=O)Nc1ccc(SC(F)(F)F)cc1 (centres undefined),inactive: 33.5%
10,CP(=O)(Oc1ccccc1)OC(c1ccccc1)C(F)(F)F (centres undefined),inactive: -0.923%
11,O=C(COc1ccccc1)OC1CN2CCC1CC2 (centres undefined),inactive: 0.452%
12,CCc1ccc(OP(C)(=O)N2CCN(c3ccc([N+](=O)[O-])cc3)CC2)cc1 (centres undefined),inactive: -13.2%
13,Cc1cc(C)cc(OP(C)(=O)Nc2ccc(SC(F)(F)F)cc2)c1 (centres undefined),inactive: -6.53%
14,O=C(Nc1ccncc1[N+](=O)[O-])c1ccc([N+](=O)[O-])cc1[N+](=O)[O-],inactive: 6.52%
15,CCOC(=O)Nc1cccc([As](=O)(O)O)c1,inactive: 2.68%
16,CP(=O)(Nc1ccccc1Br)Oc1ccccc1 (centres undefined),inactive: 0.146%
17,O=[N+]([O-])c1ccc(Nc2ccc(Oc3ccc([N+](=O)[O-])cc3[N+](=O)[O-])cc2)c([N+](=O)[O-])c1,inactive: 14.1%
18,Cc1cc(SC(NC=O)C(Cl)(Cl)Cl)ncn1 (centres undefined),inactive: -10.4%
19,O=P(Nc1ccccn1)(c1cccc2ccccc12)c1cccc2ccccc12,inactive: 13.3%
20,CCOC(=O)Nc1ccc([As](=O)(O)O)c(O)c1,inactive: -9.3%
21,Cc1cc(SC(NC(=O)c2ccccc2)C(Cl)(Cl)Cl)nc(C(C)C)n1 (centres undefined),inactive: -8.96%
22,COc1ccccc1OP(C)(=O)Nc1ccc(C)cc1 (centres undefined),inactive: -6.6%

row,Structure (SMILES),protection from apoptosis
1,Cc1ccc(NP(C)(=O)Oc2ccccc2)c(C)c1 (centres undefined),inactive: -0.775%
2,CC(C)c1ccc(OP(=O)(Nc2ccccn2)Oc2ccccc2F)cc1 (centres undefined),inactive: 1.68%
3,CCOC(=O)c1ccc(NP(C)(=O)Oc2ccccc2)cc1 (centres undefined),inactive: -3.33%
4,ClCCSc1nnc(-c2cccnc2)o1,inactive: -3.65%
5,Cc1cc(C)cc(OP(C)(N)=O)c1 (centres undefined),inactive: 2.08%
6,CC(C)NC(=O)NP(=O)(Oc1ccccc1)Oc1ccccc1,inactive: 1.44%
7,COc1ccccc1OP(C)(=O)Nc1cc(Cl)ccc1C (centres undefined),inactive: -3.03%
8,CCN(CC)C(=S)SC(NC=O)C(Cl)(Cl)Cl (centres undefined),inactive: 16.6%
9,COc1ccc(OP(C)(=O)Nc2cccc(F)c2)cc1 (centres undefined),inactive: -1.25%
10,O=[As](O)(c1ccc(O)cc1)c1ccccc1O,inactive: -8.68%
11,C[As](=O)(O)c1cccc(C(=O)O)c1,inactive: -6.3%
12,COc1cc(C(=O)NCC2(N3CCOCC3)CCCCC2)ccc1OCC(C)C,inactive: 1.49%
13,O=[N+]([O-])c1cc([N+](=O)[O-])c(Nc2cccnc2)c([N+](=O)[O-])c1,active: 125%
14,O=[N+]([O-])c1ccc2c(c1)C=Nc1ccccc1O2,inactive: 17.1%
15,Cc1ccc2nc3c(c(C)c2c1)CC(C(Cl)Cl)S3 (centres undefined),inactive: -2.93%
16,Cc1ccc(OP(=O)(Nc2ccc([N+](=O)[O-])cn2)Oc2ccc(C)cc2)cc1,inactive: 6.06%
17,CC(C)(C)c1ccc(OP(C)(=O)Nc2ccc(SC(F)(F)F)cc2)cc1 (centres undefined),inactive: 2.73%
18,Cc1cccc(C)c1OP(C)(N)=O (centres undefined),inactive: -2.64%
19,CC(Cc1ccc(O)cc1)NCC(O)c1cc(O)cc(O)c1 (centres undefined),inactive: -9.52%
20,COc1ccc(N/C(=N/P(=O)(N2CCOCC2)N2CCOCC2)N2CCOCC2)cc1,inactive: -9.91%
21,O=C(OC1CN2CCC1CC2)C12CC3CC(CC(C3)C1)C2 (centres undefined),inactive: 4.37%
22,Cc1cc(=O)[nH]c(N[N+](=O)[O-])n1,inactive: -7.55%

row,Structure (SMILES),protection from apoptosis
1,CCN(CC)CCCOC(=O)C(O)(c1ccccc1)c1ccccc1,inactive: -2.99%
2,Cc1c2c(nc3ccccc13)SC(C(Cl)Cl)C2 (centres undefined),inactive: -4.58%
3,COc1cc(I)ccc1[As](=O)(O)O,inactive: -4.45%
4,Cc1ccc(C)c(NP(C)(=O)Oc2ccccc2)c1 (centres undefined),inactive: -10.5%
5,CCCOP(=S)(Nc1nc(N)cc(=O)[nH]1)OCCC,inactive: 0.373%
6,Cc1cc(C)cc(OP(C)(=O)Nc2ccccn2)c1 (centres undefined),inactive: -26.1%
7,CP(=O)(Nc1cccc(Br)c1)Oc1ccccc1 (centres undefined),inactive: -6.99%
8,Cc1ccc(NCCc2c([N+](=O)[O-])cc([N+](=O)[O-])cc2[N+](=O)[O-])cc1,inactive: 32.3%
9,Nc1cccc2c([As](=O)(O)O)cccc12,inactive: -5.73%
10,CCOP(=O)(Nc1cccc2ccccc12)OCC,inactive: -3.22%
11,O=[As](O)(O)c1cccnc1,inactive: 0.364%
12,COc1cc(C(=O)NCC2(N3CCOCC3)CCCCC2)cc(Cl)c1OC(C)C,inactive: 4.22%
13,COc1ccccc1OP(C)(=O)Nc1cccc(Br)c1 (centres undefined),inactive: -4.78%
14,CS(=O)(=O)c1ccc(Cl)c(NC(=O)COC(=O)C(O)(c2ccccc2)c2ccccc2)c1,inactive: 3.16%
15,O=C(OC1CN2CCC1CC2)c1ccc(Cl)cc1 (centres undefined),inactive: -3.05%
16,CCOC(=O)c1ccc(NP(C)(=O)Oc2cc(C)cc(C)c2)cc1 (centres undefined),inactive: -2.81%
17,Cc1cccc(OCC(=O)OC2CN3CCC2CC3)c1 (centres undefined),inactive: -0.652%
18,O=[As](O)(c1cccc(O)c1)c1cccc(O)c1,inactive: -4.39%
19,Cc1cc(C)cc(OP(C)(=O)Nc2ccc(C)cc2C)c1 (centres undefined),inactive: -9.02%
20,NC(=O)Nc1ccc([As](=O)(O)O)cc1,inactive: -3.99%
